# Measurements as given in patent publication US5723719A, “Transgenic mouse as model for diseases involving dopaminergic dysfunction” (Health Research Inc., priority 1995, dated 1998).
# Like-named read-outs stand apart in the source and are kept apart here.
# Tested on: transgenic mice and control mice
# Conditions: mouse, in vivo
structure (smiles),measurement,setting,value
CCCN1CCC[C@@H]2Cc3n[nH]cc3C[C@H]21 [quinpirole],Change in baseline net turns after injection,,no significant change in baseline net turns
same,Change in net turns after injection,,dose-related decreases in net turns
same,Change in net turns over baseline levels,,dose-related increase in net turns over baseline levels
same,Change in net turns after injection,"sc, 0.25 mg/kg",no change
same,Change in net turns over baseline levels,"sc, 0.25 mg/kg",not at the 0.25 mg/kg dose
